We go through six molecules from patent US6936585B2, “Corticotropin releasing factor 2 receptor agonists” (priority 2002, dated 2005).

pEC50: −log10 of the molar value.

One experiment concerns the target T1, CRF2R (Homo sapiens, UniProt Q13324).
T1 sequence (Q13324 1-411): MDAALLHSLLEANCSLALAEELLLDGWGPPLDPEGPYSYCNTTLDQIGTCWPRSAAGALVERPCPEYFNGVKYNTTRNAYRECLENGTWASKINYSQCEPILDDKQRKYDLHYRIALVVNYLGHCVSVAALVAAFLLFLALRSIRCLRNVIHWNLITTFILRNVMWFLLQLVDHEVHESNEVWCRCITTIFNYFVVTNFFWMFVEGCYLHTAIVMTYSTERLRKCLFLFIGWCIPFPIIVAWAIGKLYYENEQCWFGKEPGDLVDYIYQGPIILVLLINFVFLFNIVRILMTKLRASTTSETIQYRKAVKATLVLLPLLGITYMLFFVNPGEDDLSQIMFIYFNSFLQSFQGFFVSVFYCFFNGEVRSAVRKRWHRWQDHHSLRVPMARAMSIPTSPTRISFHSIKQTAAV
Nature of the experiment: CRF2R agonist activation (EC50 / Emax), called comparative CRF binding. The experiment is classed as cell-based. The note with it: for Emax: read-out: CRF2R Emax. The gist of the method:
(§1)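 Cells expressing human CRF1R or CRF2R are exposed to peptide or vehicle control, and receptor activation is read as cAMP induction, measured in cell lysates or via a CRE-linked reporter gene.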

A further experiment has as its target T2, CRF1R (Homo sapiens, UniProt P34998).
T2 sequence (P34998 24-415): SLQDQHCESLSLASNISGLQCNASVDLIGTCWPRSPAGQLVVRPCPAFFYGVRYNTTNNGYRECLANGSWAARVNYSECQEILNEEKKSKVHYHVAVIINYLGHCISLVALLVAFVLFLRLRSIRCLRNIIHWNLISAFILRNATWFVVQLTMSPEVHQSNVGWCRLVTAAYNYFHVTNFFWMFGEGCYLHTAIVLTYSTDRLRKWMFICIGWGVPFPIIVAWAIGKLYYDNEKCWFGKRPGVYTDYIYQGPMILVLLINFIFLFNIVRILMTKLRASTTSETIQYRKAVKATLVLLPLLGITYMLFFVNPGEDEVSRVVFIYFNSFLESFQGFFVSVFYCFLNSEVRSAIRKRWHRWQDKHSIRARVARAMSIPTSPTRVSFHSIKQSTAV
The experiment can be described thus: CRF1R agonist activation (EC50 / Emax), called comparative CRF binding. The note with it: for Emax: read-out: CRF1R Emax. The experiment is classed as cell-based. In short, it runs like this: as §1

By Emax is commonly meant the maximal effect, on the per cent scale that the assay sets. On to `CC[C@H](C)[C@H](NC(=O)[C@@H](NC(=O)[C@H](CC(=O)O)NC(=O)[C@H](CC(C)C)NC(=O)[C@H](CC(C)C)NC(=O)[C@H](CC(C)C)NC(=O)[C@H](CCCNC(=N)N)NC(=O)[C@H](CC(N)=O)NC(=O)[C@H](CC(N)=O)NC(=O)[C@H](C)NC(=O)[C@H](C)NC(=O)[C@H](CCC(N)=O)NC(=O)[C@H](CCC(N)=O)NC(=O)[C@H](CCCCN)NC(=O)[C@H](CCC(=O)O)NC(=O)[C@H](CCCCN)NC(=O)[C@H](CCC(=O)O)NC(=O)[C@H](CCC(N)=O)NC(=O)[C@H](CCCCN)NC(=O)[C@H](CCC(=O)O)NC(=O)[C@@H](NC(=O)[C@H](CCC(=O)O)NC(=O)[C@@H](NC(=O)[C@H](CCSC)NC(=O)[C@H](CCCCN)NC(=O)[C@H](CCCNC(=N)N)NC(=O)[C@H](CC(C)C)NC(=O)[C@H](CC(C)C)NC(=O)[C@H](CCC(N)=O)NC(=O)[C@H](C)NC(=O)[C@@H]1CCCN1C(=O)[C@H](CC(C)C)NC(=O)[C@H](CC(=O)O)NC(=O)[C@@H](NC(=O)[C@H](CO)NC(=O)[C@@H](NC(=O)[C@@H]1CCCN1C(=O)[C@@H]1CCCN1C(=O)CNC(=O)[C@@H]1CCC(=O)N1)[C@@H](C)CC)[C@@H](C)CC)[C@@H](C)CC)[C@@H](C)CC)[C@@H](C)O)C(N)=O` [compound 211], for which the Emax at CRF2R is 100%; at CRF1R it was 37%.

As to `CC[C@H](C)[C@H](NC(=O)[C@@H](NC(=O)[C@H](CC(=O)O)NC(=O)[C@H](CC(C)C)NC(=O)[C@H](CC(C)C)NC(=O)[C@H](CCCNC(=N)N)NC(=O)[C@H](C)NC(=O)[C@H](CC(N)=O)NC(=O)[C@H](CC(N)=O)NC(=O)[C@H](C)NC(=O)[C@H](C)NC(=O)[C@H](CCC(N)=O)NC(=O)[C@H](CCC(N)=O)NC(=O)[C@H](CCCCN)NC(=O)[C@H](CCC(=O)O)NC(=O)[C@H](CCCCN)NC(=O)[C@H](CCC(=O)O)NC(=O)[C@H](CCC(N)=O)NC(=O)[C@H](CCCCN)NC(=O)[C@H](CCC(=O)O)NC(=O)[C@@H](NC(=O)[C@H](CCC(=O)O)NC(=O)[C@@H](NC(=O)[C@@H](NC(=O)[C@H](CCCCN)NC(=O)[C@H](CCCNC(=N)N)NC(=O)[C@H](CC(C)C)NC(=O)[C@H](CC(C)C)NC(=O)[C@H](Cc1c[nH]cn1)NC(=O)[C@H](Cc1ccc(O)cc1)NC(=O)[C@@H]1CCCN1C(=O)[C@@H](NC(=O)[C@H](CC(=O)O)NC(=O)[C@@H](NC(=O)[C@H](CO)NC(=O)[C@@H](NC(=O)[C@@H]1CCCN1C(=O)[C@@H]1CCCN1C(=O)CNC(=O)[C@@H]1CCC(=O)N1)[C@@H](C)CC)[C@@H](C)CC)C(C)C)C(C)C)[C@@H](C)CC)[C@@H](C)CC)[C@@H](C)O)C(N)=O` [compound 376], the figures for the Emax at CRF2R and on CRF1R were 100% and 8%, respectively.

Usually pEC50 stands for the EC50 on a negative log10 scale, so that one unit is a factor of ten. A low value points to a high EC50. In the case of `CC[C@H](C)[C@H](NC(=O)[C@@H](NC(=O)[C@H](CC(=O)O)NC(=O)[C@H](CC(C)C)NC(=O)[C@H](CC(C)C)NC(=O)[C@H](CC(C)C)NC(=O)[C@H](C)NC(=O)[C@H](CC(N)=O)NC(=O)[C@H](CC(N)=O)NC(=O)[C@H](C)NC(=O)[C@H](C)NC(=O)[C@H](CCC(N)=O)NC(=O)[C@H](CCC(N)=O)NC(=O)[C@H](CCCCN)NC(=O)[C@H](CCC(=O)O)NC(=O)[C@H](CCCCN)NC(=O)[C@H](CCC(=O)O)NC(=O)[C@H](CCC(N)=O)NC(=O)[C@H](CCCCN)NC(=O)[C@H](CCC(=O)O)NC(=O)[C@@H](NC(=O)[C@H](CCC(=O)O)NC(=O)[C@@H](NC(=O)[C@H](CCSC)NC(=O)[C@H](CCCCN)NC(=O)[C@H](CCCNC(=N)N)NC(=O)[C@H](CC(C)C)NC(=O)[C@H](CC(C)C)NC(=O)[C@H](CCC(N)=O)NC(=O)[C@H](CC(C)C)NC(=O)[C@@H]1CCCN1C(=O)[C@H](CC(C)C)NC(=O)[C@H](CC(=O)O)NC(=O)[C@@H](NC(=O)[C@H](CO)NC(=O)[C@@H](NC(=O)[C@@H]1CCCN1C(=O)[C@@H]1CCCN1C(=O)CNC(=O)[C@@H]1CCC(=O)N1)[C@@H](C)CC)[C@@H](C)CC)[C@@H](C)CC)[C@@H](C)CC)[C@@H](C)O)C(N)=O` [compound 248], the results for the pEC50 on CRF2R and on CRF1R (CRF1R EC50) were 7.71 and at most 6.00, respectively. Also, the Emax was 98% at CRF2R and 32% at CRF1R.

As for `CC[C@H](C)[C@H](NC(=O)[C@@H](NC(=O)[C@H](CC(=O)O)NC(=O)[C@H](CC(C)C)NC(=O)[C@H](CC(C)C)NC(=O)[C@H](CC(C)C)NC(=O)[C@H](CCCNC(=N)N)NC(=O)[C@H](CC(N)=O)NC(=O)[C@H](CC(N)=O)NC(=O)[C@H](C)NC(=O)[C@H](C)NC(=O)[C@H](CCC(N)=O)NC(=O)[C@H](CCC(N)=O)NC(=O)[C@H](CCCCN)NC(=O)[C@H](CCC(=O)O)NC(=O)[C@H](CCCCN)NC(=O)[C@H](CCC(=O)O)NC(=O)[C@H](CCC(N)=O)NC(=O)[C@H](CCCCN)NC(=O)[C@H](CCC(=O)O)NC(=O)[C@@H](NC(=O)[C@H](CCC(=O)O)NC(=O)[C@@H](NC(=O)[C@H](CCSC)NC(=O)[C@H](CCCCN)NC(=O)[C@H](CCCNC(=N)N)NC(=O)[C@H](CC(C)C)NC(=O)[C@H](CC(C)C)NC(=O)[C@H](Cc1ccc(O)cc1)NC(=O)[C@H](CC(N)=O)NC(=O)[C@@H]1CCCN1C(=O)[C@H](CC(C)C)NC(=O)[C@H](CC(=O)O)NC(=O)[C@@H](NC(=O)[C@H](CO)NC(=O)[C@@H](NC(=O)[C@@H]1CCCN1C(=O)[C@@H]1CCCN1C(=O)CNC(=O)[C@@H]1CCC(=O)N1)[C@@H](C)CC)[C@@H](C)CC)[C@@H](C)CC)[C@@H](C)CC)[C@@H](C)O)C(N)=O` [compound 64], the values for the Emax on CRF2R and at CRF1R were 94% and 57%, respectively.

Turning to `CC[C@H](C)[C@H](NC(=O)[C@@H](NC(=O)[C@H](CC(=O)O)NC(=O)[C@H](CC(C)C)NC(=O)[C@H](CC(C)C)NC(=O)[C@H](CC(C)C)NC(=O)[C@H](CCCNC(=N)N)NC(=O)[C@H](CC(N)=O)NC(=O)[C@H](CC(N)=O)NC(=O)[C@H](C)NC(=O)[C@H](C)NC(=O)[C@H](CCC(N)=O)NC(=O)[C@H](CCC(N)=O)NC(=O)[C@H](CCCCN)NC(=O)[C@H](CCC(=O)O)NC(=O)[C@H](CCCCN)NC(=O)[C@H](CCC(=O)O)NC(=O)[C@H](CCC(N)=O)NC(=O)[C@H](CCCCN)NC(=O)[C@H](CCC(=O)O)NC(=O)[C@@H](NC(=O)[C@H](CCC(=O)O)NC(=O)[C@@H](NC(=O)[C@H](CCSC)NC(=O)[C@H](CCCCN)NC(=O)[C@H](CCCNC(=N)N)NC(=O)[C@H](CC(C)C)NC(=O)[C@H](CC(C)C)NC(=O)[C@H](CO)NC(=O)[C@@H](NC(=O)[C@@H]1CCCN1C(=O)[C@H](CC(C)C)NC(=O)[C@H](CC(=O)O)NC(=O)[C@@H](NC(=O)[C@H](CO)NC(=O)[C@@H](NC(=O)[C@@H]1CCCN1C(=O)[C@@H]1CCCN1C(=O)CNC(=O)[C@@H]1CCC(=O)N1)[C@@H](C)CC)[C@@H](C)CC)[C@@H](C)CC)[C@@H](C)CC)[C@@H](C)CC)[C@@H](C)O)C(N)=O` [compound 53], the Emax on CRF2R was 95%; on CRF1R it was 19%.

As for `CC[C@H](C)[C@H](NC(=O)[C@@H](NC(=O)[C@H](CC(=O)O)NC(=O)[C@H](CC(C)C)NC(=O)[C@H](CC(C)C)NC(=O)[C@H](CC(C)C)NC(=O)[C@H](CCCNC(=N)N)NC(=O)[C@H](CC(N)=O)NC(=O)[C@H](CC(N)=O)NC(=O)[C@H](C)NC(=O)[C@H](C)NC(=O)[C@H](CCC(N)=O)NC(=O)[C@H](CCC(N)=O)NC(=O)[C@H](CCCCN)NC(=O)[C@H](CCC(=O)O)NC(=O)[C@H](CCCCN)NC(=O)[C@H](CCC(=O)O)NC(=O)[C@H](CCC(N)=O)NC(=O)[C@H](CCCCN)NC(=O)[C@H](CCC(=O)O)NC(=O)[C@@H](NC(=O)[C@H](CCC(=O)O)NC(=O)[C@@H](NC(=O)[C@H](CCSC)NC(=O)[C@H](CCCCN)NC(=O)[C@H](CCCNC(=N)N)NC(=O)[C@H](CC(C)C)NC(=O)[C@H](CC(C)C)NC(=O)[C@H](Cc1c[nH]c2ccccc12)NC(=O)[C@H](CC(C)C)NC(=O)[C@@H]1CCCN1C(=O)[C@H](CC(C)C)NC(=O)[C@H](CC(=O)O)NC(=O)[C@@H](NC(=O)[C@H](CO)NC(=O)[C@@H](NC(=O)[C@@H]1CCCN1C(=O)[C@@H]1CCCN1C(=O)CNC(=O)[C@@H]1CCC(=O)N1)[C@@H](C)CC)[C@@H](C)CC)[C@@H](C)CC)[C@@H](C)CC)[C@@H](C)O)C(N)=O` [compound 218], the Emax on CRF2R came to 96%; on CRF1R, 100%.
